Results published in ChEMBL document CHEMBL3045492, “Regioselective synthesis of novel 3-alkoxy (phenyl) thiophosphorylamido-2-(per-O-acetylglycosyl-1'-imino)thiazolidine-4-one derivatives from O-alkyl N4-glycosyl(thiosemicarbazido)phosphonothioates” (2009).

Tested on: Brassica rapa subsp. oleifera
Assay: Herbicidal activity against Brassica rapa subsp. oleifera assessed as growth inhibition at 1.5 kg/ha relative to control

Structure (SMILES): COP(=S)(NN1C(=O)CS/C1=N/[C@@H]1O[C@H](COC(C)=O)[C@@H](OC(C)=O)[C@H](OC(C)=O)[C@H]1OC(C)=O)c1ccccc1 (stereo partly specified)
- growth inhibition (GI): 62.7%
